In the Kinase Knowledgebase extract (Sharma et al. 2016) one finds IC50 data, which are given here for 1 compound.

The chains behind the UniProt entries cited, without tags or fusion partners. Where a name states a change or a piece, a line headed by the entry shows the natural chain unless it says otherwise.
UniProt P42338: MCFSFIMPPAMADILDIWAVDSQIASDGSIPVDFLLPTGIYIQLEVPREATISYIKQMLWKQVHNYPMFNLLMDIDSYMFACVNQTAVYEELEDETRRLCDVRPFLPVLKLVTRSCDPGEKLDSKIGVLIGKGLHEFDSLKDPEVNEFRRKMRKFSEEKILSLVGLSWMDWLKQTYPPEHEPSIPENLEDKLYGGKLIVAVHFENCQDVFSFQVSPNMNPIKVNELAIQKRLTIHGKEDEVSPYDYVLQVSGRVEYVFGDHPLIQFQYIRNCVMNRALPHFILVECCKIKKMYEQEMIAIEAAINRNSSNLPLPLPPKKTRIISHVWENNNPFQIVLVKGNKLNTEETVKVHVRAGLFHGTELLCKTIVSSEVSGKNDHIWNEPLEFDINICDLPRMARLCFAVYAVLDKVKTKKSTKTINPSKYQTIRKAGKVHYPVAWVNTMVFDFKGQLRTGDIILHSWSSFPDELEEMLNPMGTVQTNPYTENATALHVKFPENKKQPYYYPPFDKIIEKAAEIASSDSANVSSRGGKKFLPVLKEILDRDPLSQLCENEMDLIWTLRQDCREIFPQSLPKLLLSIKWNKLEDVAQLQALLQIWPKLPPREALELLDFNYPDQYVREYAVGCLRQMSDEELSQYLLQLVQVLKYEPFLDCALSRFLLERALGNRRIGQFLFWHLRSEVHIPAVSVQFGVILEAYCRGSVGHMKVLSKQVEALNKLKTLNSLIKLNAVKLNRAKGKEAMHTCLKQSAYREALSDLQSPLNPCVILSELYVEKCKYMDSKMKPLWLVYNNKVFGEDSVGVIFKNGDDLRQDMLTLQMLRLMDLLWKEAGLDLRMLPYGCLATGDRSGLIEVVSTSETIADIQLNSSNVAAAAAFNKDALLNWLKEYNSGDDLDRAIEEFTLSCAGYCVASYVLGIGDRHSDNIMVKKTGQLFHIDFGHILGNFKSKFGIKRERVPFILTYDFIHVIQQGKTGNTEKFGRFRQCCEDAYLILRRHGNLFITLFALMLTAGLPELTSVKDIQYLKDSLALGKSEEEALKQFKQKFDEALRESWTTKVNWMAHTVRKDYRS

Molecules are shown by their SMILES. pIC50: −log10 of the molar value.

The target of this test is PIK3CB (Human) (UniProt P42338). In words: Enzyme Assay.

The compound `Cc1cc(C(C)Nc2ccccc2)c2nc(N3CCOCC3)cc(=O)n2c1` (stereo unspecified) gave a pIC50 of 7.28.

As a reminder, the pIC50 is −log10 of the IC50, conventionally taken in molar units.
